Earlier results as cited in article PMC9916778 (International Journal of Molecular Sciences, 2023).

Test system: Caco-2/TC7 cells
Conditions: cited from earlier work

## [Au(tpy)Cl(2-TU)]
  Cells in G2/M arrest, Caco-2/TC7: around 30%
